Ab-14 heavy chain CDR variants: yeast mating affinities

Reference: Li et al. 2023, doi:10.1038/s41467-023-39022-2. File: FLAb, binding data.

Target: peptide PDVDLGDISGINAS, taken from heptad repeat 2 (HR2) of SARS-CoV-2 spike.

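The parent was found by panning a naive human phage display library on the peptide. Designed CDR sequences, proposed from the first random library and measured here. Several design methods are mixed in this list. The assay is AlphaSeq: two haploid yeast populations carry antibody and antigen on their surface. After mating in shaken culture at 30 °C for 16 h, diploids were selected and their barcode pairs sequenced. A regression on co-assayed BCL2-family reference pairs converts the normalised counts of each replicate to an apparent Kd. There are six technical replicates.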

Parent: Ab-14, a human scFv built as VH, three GGGGS repeats, VL. Only the CDRs of the heavy chain vary.
VH: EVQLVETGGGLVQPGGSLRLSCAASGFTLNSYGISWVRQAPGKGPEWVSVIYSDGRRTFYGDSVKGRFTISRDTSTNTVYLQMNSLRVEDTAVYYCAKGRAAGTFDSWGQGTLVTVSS
VL: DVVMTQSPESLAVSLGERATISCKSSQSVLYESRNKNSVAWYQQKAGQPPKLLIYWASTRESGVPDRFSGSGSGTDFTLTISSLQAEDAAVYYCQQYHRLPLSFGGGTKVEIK

The parent's heavy chain CDRs are GFTLNSYGIS, VIYSDGRRTFYGDSVK, GRAAGTFDS; each variant's own CDRs replace them letter for letter. This list holds designs with more than six substitutions. Affinities are written as log10 Kd with Kd in nM; a lower number is a better binder. The mean shown is taken over the replicates in which the pair was detected. "no signal" means that the variant was in the library but no mating with the target was seen in any replicate; the authors take this as a sign of poor binding, and no number exists.

| CDR-H1 | CDR-H2 | CDR-H3 | mean, log10 nM | seen in |
|---|---|---|---|---|
| GEDLQEYGIS | VIYADGLRTKYADKVK | GNINGYFDD | no signal | 0 of 6 |
| GFDLNEYGIS | VIYADGRRTFYADSVK | GTAGGTFDM | 0.13 | 6 of 6 |
| GFDLDEYGIS | VIYADGRRTAYSDSVK | GNVAGTFDI | -0.63 | 6 of 6 |
| GFTLDEYGIS | VIYADGRRTFYADSVK | GNVAGTFDT | -0.40 | 6 of 6 |
| GYDLVEYGIS | VIYADGQRTAYADDVK | GNHGGIIDV | 1.92 | 1 of 6 |
| GFDLNEYGIS | VIYADGMRTAYGDSVK | GTNAGTFDQ | -0.45 | 6 of 6 |
| GFDLDEYGIS | VIYADGLRTAYTDSVK | GNVAGTFDV | -0.34 | 6 of 6 |
| GFDLGEYGVS | VIYADGHRAAYSDNVK | GAESGSVQT | 3.75 | 1 of 6 |
| GQSLDDYGIS | VIYADGQRKAAADEVK | GENAGTFDI | no signal | 0 of 6 |
| GFDLDEYGIS | VIYADGQRTAYADKVK | GNVAGTFDV | -0.69 | 6 of 6 |
| GFDLNEYGIS | VIYADGMRTHYTDSVK | GNEAGTFDV | -0.18 | 6 of 6 |
| GFDLNEYGIS | VIYADGQRTAYANSVK | GNVAGTFDV | -0.61 | 6 of 6 |
| GFSLDEYGIS | VIYADGVRARYSDQVK | GVKVGNVIM | 2.98 | 1 of 6 |
| GFNMDEYGIS | VIYADGRRTFYTNSVK | GVVTWSGKV | no signal | 0 of 6 |
| GGDLNEYGIS | VIYADGVRKNYIDSVK | GQNGIVLNI | no signal | 0 of 6 |
| GFDLNEYGIS | VIYADGMRTAYSDSVK | GEVAGTFDV | 0.76 | 5 of 6 |
| GFDLNEYGIS | VIYADGMRTAYADDVK | GQNAGTFDV | 0.54 | 6 of 6 |
| GFDLQEYGIS | VIFADGLRSAYSDKVK | GQLNGYFSV | no signal | 0 of 6 |
| GFDLDEYGIS | VIYADGRRTVYQDSVK | GQNAGTFDQ | 0.00 | 6 of 6 |
| GFNLDEYGIS | VIYADGIREHYVDDVK | GKHGGFKLD | no signal | 0 of 6 |
| GMSLGEYGIS | VIYADGERTNYASNFK | GVMAGTFDV | 0.41 | 6 of 6 |
| EFDLNEYGIS | VIYADGKRTFYADHVK | GTNAGVFDT | no signal | 0 of 6 |
| GFDLNEYGIS | VIYADGKRTFYADSVK | GQLAGTFDV | -0.62 | 6 of 6 |
| GFDLQEYGIS | VIYADGVREAYANSFK | GQIAGTINS | 1.16 | 4 of 6 |
| GFDLNEYGIS | VIYADGQRTYYADSVK | GNVAGTFDV | no signal | 0 of 6 |
| GFDLNEYGIS | VIYADGMRTYYADDVK | GNVAGTFDV | -0.23 | 6 of 6 |
| GFNINEYGIS | VIYADGQRLSYDDNVK | GGITGTFLS | no signal | 0 of 6 |
| GFDLNEYGIS | VIYADGMRTVYADDVK | GNQAGTFDV | 1.85 | 2 of 6 |
| GFDLNEYGIS | VIYADGLRTFYSDSVK | GENAGTFDV | 0.55 | 6 of 6 |
| GFDLNEYGIS | VIYADGMRTAYSDDVK | GNQAGTFDI | -0.38 | 6 of 6 |
| GFTLNEYGIS | VIYSDGRRAFYTTSKK | GWFAGTFDS | no signal | 0 of 6 |
| GFDLDEYGIS | VIYADGKRTAYSDSVK | GENAGTFDQ | 0.56 | 6 of 6 |
| GFDLTEYGIS | VIYADGVRNHYADNVK | GKSDGTNML | no signal | 0 of 6 |
| GFSLENYGIS | VIYADGMRTAYAPSVK | GENDGYDTT | 4.68 | 1 of 6 |
| GFEIQDYGIS | VIYADGFRTAYAESVK | GNMGGTFST | 0.41 | 6 of 6 |
| GFDLNEYGIS | VIYADGLRTFYTDSVK | GEHAGTFDV | -0.57 | 6 of 6 |
| GFDLDKYGIS | VIYADGRRKFYQNQFK | GGQAGTFDI | 0.13 | 6 of 6 |
| GFGLNEYGIS | VIYADGVRTAYLQNVK | GIVSGFDQY | no signal | 0 of 6 |
| GFNLDEYGIS | VIYADGMRTAYADSVK | GEVAGTFDI | 0.85 | 6 of 6 |
| GFDLNEYGIS | VIYADGRRTAYIDSVK | GHEAGTFDS | 0.35 | 6 of 6 |
| GFDLNEYGIS | VIYADGRRTAYIDSVK | GHAAGTFDF | -0.06 | 6 of 6 |
| GFEIDEYGIS | VIYADGLRYHYANSVK | GEMAGTFTE | 0.50 | 3 of 6 |
| GFDLNEYGIS | VIYADGMRTAYSDKVK | GQNAGTFDV | -0.26 | 6 of 6 |
| GFSINEYGIS | VIYADGLRQFYTNAVK | GMAAGTFDQ | 1.15 | 6 of 6 |
| GKEIEEYGIS | VIYADGMRQAYAESVK | GQVAGIGKF | no signal | 0 of 6 |
| GFDLNEYGIS | VIYADGMRKAYADDVK | GEVAGTFDV | -0.28 | 6 of 6 |
| GFDLDEYGIS | VIYADGKRTAYADSVK | GGVAGTFDV | -1.09 | 6 of 6 |
| GFDLNEYGIS | VIYADGMRTAYADSVK | GESAGTFDV | -0.20 | 6 of 6 |
| GFEVDEYGIS | VIYADGKRSMYANKVK | GHIAGMMHV | 1.04 | 5 of 6 |
| GFDLEDYGIS | VIYADGMRTAYSDSVK | GNEAGTFDV | -0.14 | 6 of 6 |
| GFDLNDYGIS | VIYADGMRTSYIDSVK | GEQAGTFDL | -0.34 | 6 of 6 |
| GFDLNEYGIS | VIYADGMRTAYIDSVK | GNAAGTFDV | 0.51 | 6 of 6 |
| GFDLNEYGIS | VIYADGSRTAYADSVK | GEVAGTFDT | 0.89 | 6 of 6 |
| GFDLNEYGIS | VIYADGRRKFYADKVK | GEFAGTFDV | 0.07 | 6 of 6 |
| GFFLDEYGIS | VIYADGMRTAYKDKVK | GSDTGLGWF | no signal | 0 of 6 |
| GFDLNEYGIS | VIYADGSRTFYADSVK | GEVAGSFDQ | -0.49 | 6 of 6 |
| GFDLDEYGIS | VIYADGRRTYYADSVK | GNVAGTFDQ | -0.77 | 6 of 6 |
| GFDLNEYGIS | VIYADGMRTAYTDSVK | GNEAGTFDS | -0.18 | 6 of 6 |
| GFDLESYGIS | VIYADGKRSSVSNSVK | GQLGNAFDM | no signal | 0 of 6 |
| GFDLNEYGIS | VIYADGTRTAYSDSVK | GNVAGTFDV | -0.38 | 6 of 6 |
| GFDLNEYGIS | VIYADGRRTAYLDSVK | GEAAGTFDV | 0.10 | 6 of 6 |
| GFGLDEYGIS | VIYADGKRYAYKNSVK | GGDGVNGLH | no signal | 0 of 6 |
| GFDLNEYGIS | VIYADGMRQRYAQNFK | GYNSSDLTV | no signal | 0 of 6 |
| GFDLNEYGIS | VIYADGQRKFYADSVK | GNVAGTFDV | -0.52 | 6 of 6 |
| GFHLDEYGIS | VIYADGMRTQYADQVK | GNLVATVMT | no signal | 0 of 6 |
| GFDINEYGIS | VIYADGRRTFYTDSVK | GNNAGTFDS | -0.30 | 6 of 6 |
| GFDLNEYGIS | VIYADGLRTFYTDSVK | GEMAGTFDV | -0.48 | 6 of 6 |
| GFNLNEYGIS | VIYADGLRTQYIDSVK | GNAFIFGLD | no signal | 0 of 6 |
| GFDLNEYGIS | VIYADGVRKAYVDSVK | GNVAGTFDV | -0.31 | 6 of 6 |
| GFSLDEYGIS | VIYADGRRTFYADSVK | GTLAGTFDA | -1.02 | 5 of 6 |
| GFPIDEYGIS | VIYADGRRTVYSDNVK | GNYGASIAV | no signal | 0 of 6 |
| GFDINEYGIS | VIYADGMRTAYADSVK | GNVAGTFDV | 0.15 | 6 of 6 |
| GFDLDEYGIS | VIYADGMRTAYADSVK | GANAGTFDL | -0.92 | 6 of 6 |
| GFDLNEYGIS | VIYADGQRTAYSDSVK | GETAGTFDQ | -0.62 | 6 of 6 |
| GFDLNEYGIS | VIYADGRRTFYADSVK | GEVAGTFVI | 1.02 | 6 of 6 |

The 10 strongest on average among those seen in every replicate, once more:

CDR-H1	CDR-H2	CDR-H3	mean, log10 nM	seen in
GFDLDEYGIS	VIYADGKRTAYADSVK	GGVAGTFDV	-1.09	6 of 6
GFDLDEYGIS	VIYADGMRTAYADSVK	GANAGTFDL	-0.92	6 of 6
GFDLDEYGIS	VIYADGRRTYYADSVK	GNVAGTFDQ	-0.77	6 of 6
GFDLDEYGIS	VIYADGQRTAYADKVK	GNVAGTFDV	-0.69	6 of 6
GFDLDEYGIS	VIYADGRRTAYSDSVK	GNVAGTFDI	-0.63	6 of 6
GFDLNEYGIS	VIYADGKRTFYADSVK	GQLAGTFDV	-0.62	6 of 6
GFDLNEYGIS	VIYADGQRTAYSDSVK	GETAGTFDQ	-0.62	6 of 6
GFDLNEYGIS	VIYADGQRTAYANSVK	GNVAGTFDV	-0.61	6 of 6
GFDLNEYGIS	VIYADGLRTFYTDSVK	GEHAGTFDV	-0.57	6 of 6
GFDLNEYGIS	VIYADGQRKFYADSVK	GNVAGTFDV	-0.52	6 of 6

Empty control strains, which show no peptide, gave a signal in 1% of pairings with all heavy chain designs; the median was 2.08 and 95% of these signals were weaker than 0.84. No background was subtracted. The authors' rule: three or more of the six replicates give a measured affinity, fewer mean a poor binder. A sequence measured in both rounds can read differently, since the two assays cover different ranges. Of ten entries with the parent sequence, four were seen in most replicates (averages 0.34 to 2.37), three in one and three in none, so single entries are noisy.